According to publication PMC6522981, “Structure-based design generated novel hydroxamic acid based preferential HDAC6 lead inhibitor with on-target cytotoxic activity against primary choroid plexus carcinoma” (Journal of Enzyme Inhibition and Medicinal Chemistry, 2019):

Biological target: T1, human HDAC8 (Homo sapiens, UniProt Q9BY41)
T1 construct: purchased BPS Bioscience 50008
T1 sequence (Q9BY41 1-377): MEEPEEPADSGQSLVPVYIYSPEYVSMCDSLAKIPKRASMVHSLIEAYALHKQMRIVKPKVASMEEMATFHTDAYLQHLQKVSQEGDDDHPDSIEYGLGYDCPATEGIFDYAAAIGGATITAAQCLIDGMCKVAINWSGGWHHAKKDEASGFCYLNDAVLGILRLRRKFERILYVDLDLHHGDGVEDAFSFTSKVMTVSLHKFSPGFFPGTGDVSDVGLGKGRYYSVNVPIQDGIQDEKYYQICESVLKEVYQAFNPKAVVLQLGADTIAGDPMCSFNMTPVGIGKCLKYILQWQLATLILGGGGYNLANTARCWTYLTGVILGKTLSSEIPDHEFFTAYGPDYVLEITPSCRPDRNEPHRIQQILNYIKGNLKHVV
Test: HDAC8 inhibitor enzymatic assay, % inhibition at fixed concentration
Type: biochemical
Conditions: read-out: % Inhibition HDAC8

inhibition at 100 µM: 97%
Structure (SMILES): CC(=C/C(C)C(=O)c1ccc(N(C)C)cc1)/C=C/C(=O)NO (stereo not shown) [TSA, Trichostatin A, reference compound]
